Results: PubChem BioAssay AID651999 (Sanford-Burnham Center for Chemical Genomics, 2013)
The list shows a part of the results, in another mix than the full data. Some of these compounds have results that are not shown, active ones among them. Activity calls are given as the source filed them.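 How the source made its calls: active means pattern-corrected inhibition above about 35%, with an unprinted fluorescence ratio check between 0.5 and 1.5 (limit read from the data, passing the limit was not always enough); inactive means the rest.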

Chains of the proteins cited; added tags and fusions are not shown.
UniProt Q92905, whole entry: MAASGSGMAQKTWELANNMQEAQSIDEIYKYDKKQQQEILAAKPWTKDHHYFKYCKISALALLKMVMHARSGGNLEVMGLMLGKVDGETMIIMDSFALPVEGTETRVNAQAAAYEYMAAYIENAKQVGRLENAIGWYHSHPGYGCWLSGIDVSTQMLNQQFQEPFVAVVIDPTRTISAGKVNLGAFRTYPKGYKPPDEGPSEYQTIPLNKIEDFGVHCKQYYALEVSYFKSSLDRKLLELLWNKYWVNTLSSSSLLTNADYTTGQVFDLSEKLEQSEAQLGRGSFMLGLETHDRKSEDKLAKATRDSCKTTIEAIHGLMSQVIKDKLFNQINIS

Target: COP9 signalosome complex subunit 5 (Homo sapiens) (UniProt Q92905)
Test: inhibitors of CSN-mediated cullin deneddylation, primary screen, biochemical, fluorescence polarization, uHTS (AID 651999);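 further: 0% = enzyme with substrate and 100% = substrate without enzyme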
Details: Purified CSN, SCF-Nedd8-OG deneddylation, at 12.5 µM, hits give high values
Summary of the method: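 Assay system: purified human Csn5 enzyme expressed in HEK293T cells; Input: 0.24 nM Csn5 enzyme, final concentration; Reagent: 10 nM SCFSkp2-Nedd8OG; Compound dosing: 12.5 µM single point; Times: reaction 90 min, room temperature; Technique: fluorescence polarization readout.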

SMILES	inhibition
C=CCN1CCN(CCOC(=O)C(O)(c2ccccc2)c2ccccc2)CC1	inactive: 2.01%
O=C(NCC1(N2CCCCC2)CCCCC1)c1cc(F)c(F)cc1Cl	inactive: 1.39%
COc1ccc(C(=O)NCC2(N(C)C)CCCCC2)cc1	inactive: -0.67%
Cc1cc(C(=O)NCC2(N3CCCCC3)CCCCC2)ccc1[N+](=O)[O-]	inactive: 3.94%
CCN1CCCC(OC(=O)C2(O)c3ccccc3C=Cc3ccccc32)C1 (stereo unspecified)	inactive: -6.4%
O=C(NCC1(N2CCCCC2)CCCCC1)c1cccc(Br)c1	inactive: -5.77%
Cc1ccccc1C(=O)NCC1(N2CCCCC2)CCCCC1	inactive: 4.41%
CN(C)C1CCCC1OC(=O)C(O)(c1ccccc1)c1ccccc1 (stereo unspecified)	inactive: -9.98%
CN(C)c1ccc(C(=O)NCC2(N(C)C)CCCCC2)cc1	inactive: -2.71%
CCN(CC)CC(C)C(C)OC(=O)C(O)(c1ccccc1)c1ccccc1 (stereo unspecified)	inactive: -0.33%
COc1cc(SC)ccc1C(=O)NCC1(N(C)C)CCCCC1	inactive: -1.58%
CC(C)N1C(=O)CC2(CCN(CCOC(=O)C(O)(c3ccccc3)c3ccccc3)CC2)C1=O	inactive: 1.09%
Cc1ccc(C(=O)NCC2(N3CCCCC3)CCCCC2)cc1	inactive: 0.12%
O=C(NCC1(N2CCCCC2)CCCCC1)c1cc([N+](=O)[O-])ccc1Cl	inactive: 0.33%
CN1[C@@H]2CC[C@H]1CC(OC(=O)C(O)(c1ccccc1)c1ccccc1)C2 (stereo partly specified)	inactive: -0.4%
C=C(C)C#CC(O)(C(=O)OC1CCN(C)CC1)c1ccccc1 (stereo unspecified)	inactive: 3.37%
COc1ccc(Br)c(C(=O)NCC2(N3CCCCC3)CCCCC2)c1	inactive: 2.14%
CC(C)Oc1ccc(C(=O)NCC2(N(C)C)CCCCC2)cc1	inactive: 2.58%
O=C(OCCN1CCCC1)C(O)(c1ccccc1)c1ccccc1	inactive: -1.75%
CN(C)c1cccc(C(=O)NCC2(N(C)C)CCCCC2)c1	inactive: -2.17%
O=C(OC1CN2CCC1CC2)C(CO)(c1ccccc1)c1ccccc1 (stereo unspecified)	inactive: 0.53%
COc1cccc(C(=O)NCC2(N3CCCCC3)CCCCC2)c1	inactive: -0.1%
COc1ccc(Cl)cc1C(=O)NCC1(N(C)C)CCCCC1	inactive: 3.1%
O=C(NCC1(N2CCCCC2)CCCCC1)c1cccc(Cl)c1	inactive: -3.47%
CN(C)C1(CNC(=O)c2ccc(Br)cc2)CCCCC1	inactive: -1.22%
COc1cc(C(=O)NCC2(N(C)C)CCCCC2)c([N+](=O)[O-])cc1OC	inactive: 0.09%
